Measured values: paper PMC4493534 (Theranostics, 2015)

System: TSPO
Assay: In vitro autoradiography of postmortem human brain
Type: binding
Conditions: postmortem human brain sections, 0.5 nM radioligand

in vitro binding in LAB-1 compared with HAB-1: a little higher in LAB-1 than in HAB-1
Structure (SMILES): CC[C@@H](C)N([11CH3])C(=O)c1cc2ccccc2c(-c2ccccc2Cl)n1 [(R)[^11C]PK11195]
